Values of other authors, collected in patent US7429374B2, “Process for the measurement of the potency of glatiramer acetate” (Teva Pharmaceutical Industries, Ltd., priority 2001, dated 2008).

Tested on: albumin and other serum proteins
Details: previous studies; cited from earlier work

Substance: L-glutamic acid polymer with L-alanine, L-lysine and L-tyrosine, acetate (salt) [GA]
- binding to serum proteins: binds to albumin and to other serum proteins
